Results from patent publication US20230242641A1, “SLAMF7 CARS” (JULIUS-MAXIMILIANS-UNIVERSITÄT WÜRZBURG, priority 2020, published 2023).

Tested on: EGFRt-positive T cells
Test: ADCC assay with Cetuximab
Type: cell-based, human
Settings: 50 μg/ml Cetuximab, effector to target cell ratio 20:1, SLAMF7−/low vs bulk PBMC
Experimental: PBMC were sorted for SLAMF7-negativity (right) or were left unsorted (left). […] The target T cells were previously stained with eFluor 670. The number of remaining target cells was measured by flow cytometry. Data was collected as technical triplicates.
The mechanisms that leads to CAR-T cell depletion through the EGFRt marker are ADCC and CDC. For ADCC to occur efficiently, Fc-receptor expressing PBMC (e.g. NK cells, monocytes and macrophages) are required. […] Therefore, it was tested if SLAMF7^−/low PBMC are similarly effective at conferring ADCC as bulk unselected PBMC. PBMC were obtained from healthy donors, and SLAMF7^+/high lymphocytes were depleted using immunomagnetic bead selection. Then, ADCC assays were performed using either SLAMF7^−/low PBMC or bulk unselected PBMC as effector cells. […] Without Cetuximab, no ADCC occurred. Without the EGFRt marker, no ADCC occurred. […] However, because fratricide of SLAMF7^−/high lymphocytes will likely lead to lower absolute lymphocyte counts, ADCC may occur with a slower kinetic.

Substance: Cetuximab: anti-EGFR monoclonal antibody
- ADCC depletion of EGFRt-positive SLAMF7 CAR-T cells: similarly effective with SLAMF7^−/low PBMC and bulk unselected PBMC
